# UUG fidelity – alters start codon recognition fidelity in yeast. S. cerevisiae UUG-firefly luciferase reporter, luminescence/redox ratio. AID 602363. activity score, % at 18.7 µM. hit rate 0.13% among 350,000;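 active = replicate mean at a twofold rise or more, about +100% in these data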;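 note: firefly luciferase made from a UUG start codon reports start codon fidelity; reporter light over untreated wells divided by growth signal over untreated wells; some hits fall short of that in this replicate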
# PGC1a acetyl inh – PGC1a acetylation modulation, inhibitor mode; U2OS PGC1a acetylation, AlphaScreen anti-acetyl-lysine; with virally co-expressed GCN5 acetyltransferase; inhibition, % at 15.6 µM; actives 0.17% (n = 350,000);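 active means every replicate shows inhibition of at least 40%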;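 further: 0% = neutral control wells and 100% = positive control wells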
# MITF act – activators of MITF-driven TRPM1 promoter activity in SK-MEL-5 cells; SK-MEL-5 TRPM1-promoter luciferase, 24 h; % of positive control, neutral wells = 0; activation, % at 12.5 µM; actives 0.75% (n = 300,000);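 active means mean activation of at least 80% with every replicate also reaching 80%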;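 further: 0% = neutral control wells and 100% = parthenolide positive control wells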
# Wnt act – activates Wnt/beta-catenin signaling in a reporter cell assay | activator, plate reader | activation, % at 9.35 µM | actives 1.2% (n = 300,000) | AID 743398; in the data active means activation above about 30%, passing the limit was not always enough;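 further: 0% = neutral control wells and 100% = positive control wells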
# TRPM1 prom inh – MITF TRPM1 promoter inhibition in SK-MEL-5 cells | SK-MEL-5 TRPM1 promoter luciferase, 24 h | inhibition, % at 12.5 µM | actives 0.83% (n = 330,000) | AID 488899;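 active means mean inhibition across replicates of 60% or more, whatever share of single replicates reaches that level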
# miR122 inh – blocks miR-122 activity in Huh7 sensor cells | AID 602342 | Huh7 miR-122 Renilla luciferase sensor, 48 h; neutral wells = 0, positive control = 100 | activation (reporter increase), % at 12.5 µM | actives 0.3% (n = 340,000);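 active means mean replicate activation score at least 90 and every replicate individually at or above 90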;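 further: higher luciferase means less miR-122 activity so hits act as miR-122 inhibitors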
# * = called active by the depositor; / = no result; [ ] = another dose, or the depositor's remark. A selection: hits, their analogues and other compounds. The true share with any hit is near 2.1%.
no. | compound | UUG fidelity | PGC1a acetyl inh | MITF act | Wnt act | TRPM1 prom inh | miR122 inh
1 | Cc1cccc(-n2ncc3c(N4CC(C)CC(C)C4)ncnc32)c1 (stereo unspecified) | -23 | -14 | 89* | 12 | -81 | -6
2 | COc1ccccc1NC(=O)N1C[C@@H]2N[C@H](C1)C2c1ccc(-c2cccc(C(=O)N(C)C)c2)cc1 (stereo partly specified) | / | 0 | / | / | / | /
3 | Oc1ccccc1/C=N/NC(=S)NC1CC2CC1C1C=CCC21 (stereo unspecified) | -30 | 1 | 31 | 49* | -30 | 14
4 | COc1cccc(/C=N/NC(=S)NC2CC3CC2C2C=CCC32)c1O (stereo unspecified) | -14 | -1 | / | -2 | -9 | -5
5 | COc1ccc2c3c([nH]c2c1)[C@@H](CO)N(C)CC31CCN(C(=O)CN(C)C)CC1 | / | -9 | / | / | / | /
6 | Cc1nc(Nc2ccccc2)sc1C(=O)c1ccc(F)cc1 | -1 | 6 | 53 | 10 | -48 | -12
7 | Nc1nc(Nc2ccccc2F)sc1C(=O)c1ccccc1 | / | / | 100* | 35* | -93 | /
8 | Nc1cccc(C(=O)OCC(=O)Nc2cccc3c2C(=O)c2ccccc2C3=O)c1 | / | / | -18 | -1 | 18 | /
9 | CC1CCN(C(=O)c2ccc3c(c2NCCO)C(=O)c2ccccc2C3=O)CC1 | 1 | -19 | -4 | / | 1 | -4
10 | CCN(CC)CCNC(=O)c1ccc2c(c1NCCO)C(=O)c1ccccc1C2=O | -24 | 92* | / | -20 | / | -27
11 | CCN(CC)CCC(=O)Nc1cccc2c1C(=O)c1ccccc1C2=O | -5 | -13 | / | 3 | 71* | -11
12 | CC(C)(O)c1cn([C@@H]2C[C@@H]3O[C@@H](CO)CC[C@@H]3O[C@@H]2CCc2ccc(-c3ccncc3)cc2)nn1 | / | -2 | / | / | / | /
13 | Fc1ccc(/C=N/Nc2nccnc2Cl)cc1 | -6 | / | / | 12 | -20 | /
14 | Oc1ccc(/C=N/Nc2nccnc2Cl)cc1 | -17 | 1 | -4 | 47* | -6 | -2
15 | Clc1ccc(-n2ncc3c(N4CCCCCC4)ncnc32)cc1 | -62 | -8 | -70 | 2 | 71* | 1
16 | Cc1ccc(-n2ncc3c(NCc4cccnc4)ncnc32)cc1C | -14 | -7 | 69 | 13 | -67 | -14
17 | COc1ccc(-n2ncc3c(N4CCN(c5cccc(C)c5C)CC4)ncnc32)cc1 | -19 | -23 | / | 1 | / | 1
18 | Clc1ccc(Cn2ncc3c(N4CCCCC4)ncnc32)cc1 | -19 | -6 | 1 | / | -4 | 0
19 | COc1ccc(-n2ncc3c(N4CCCCC4)ncnc32)cc1 | -92 | -10 | -85 | / | 84* | 3
20 | COc1ccc(-n2ncc3c(NCc4cccnc4)ncnc32)cc1 | -22 | 7 | 68 | 43* | -63 | 9
21 | O=C(CCN1CCCCC1)N[C@H]1CC[C@H](CCNS(=O)(=O)c2ccccc2)O[C@H]1CO | 13 | 10 | / | / | / | -17[16.7 µM]
22 | CCCN(C)C[C@H]1Oc2ncc(-c3cccnc3)cc2C(=O)N([C@H](C)CO)C[C@H]1C | -10 | 10 | / | / | / | 1[16.7 µM]
23 | O=C(C[C@H]1C=C[C@H](NS(=O)(=O)c2ccccc2)[C@@H](CO)O1)NCc1ccc(Cl)c(Cl)c1 | / | -7 | / | / | / | /
24 | CCN1CCN(C(c2ccc(C(F)(F)F)cc2)c2ccc3cccnc3c2O)CC1 (stereo unspecified) | -28 | 14 | -52 | 3 | 66* | -16
25 | O=C(Nc1ccc(S(=O)(=O)Nc2nccs2)cc1)c1cc(-c2ccccc2Cl)nc2ccccc12 | / | -6 | -7 | -3 | 4 | 104*
26 | O=C(Nc1ccc(S(=O)(=O)Nc2nccs2)cc1)c1cc(-c2ccccn2)nc2ccccc12 | / | / | 9 | / | -11 | /
27 | CCC(=O)N1CCC2(CC1)CN(Cc1cc(F)ccc1F)[C@H](CO)c1c2c2ccc(OC)cc2n1C | / | -5 | / | / | / | /
28 | O=C(NCCCN1CCOCC1)c1cc(-c2ccccc2)on1 | -11 | 3 | 3 | 16 | 2 | -3
29 | O=C(NCCCN1CCOCC1)c1ccc(Br)cc1 | -12 | 3 | 14 | / | -13 | -1
30 | O=C(NCCN1CCOCC1)c1cc(-c2ccccc2)on1 | -29 | -6 | 7 | 47* | -7 | /
31 | CC(C)(C)c1ccc(C(=O)NCCN2CCOCC2)cc1 | -10 | 65* | / | 13 | -10 | 3
32 | CC(C)(C)c1ccc(C(=O)NCCCN2CCN(CCCNC(=O)c3ccc(C(C)(C)C)cc3)CC2)cc1 | / | / | -89 | -11 | 90* | /
33 | C[C@@H]1CCCCO[C@H](CN(C)S(=O)(=O)c2ccc(Cl)cc2)[C@H](C)CN([C@H](C)CO)C(=O)c2cc(N(C)C)ccc2O1 | -8 | -13 | / | / | / | 17[16.7 µM]
34 | O=C(NC1CCCCC1)N[C@@H]1CC[C@H](CC(=O)N2CCOCC2)O[C@H]1CO | -8 | -3 | / | / | / | /
35 | CCNC(=O)C[C@H]1CC[C@@H]2[C@H](COc3ccc(NC(=O)c4cccs4)cc3C(=O)N2C)O1 | -9 | 4 | / | / | / | -2[16.7 µM]
36 | NC1=C(Br)C(=O)c2ncccc2C1=O | / | 87* | -94 | -6 | 94* | 10
37 | C[C@H](CO)N1C[C@H](C)[C@H](CN(C)C(=O)C2CCC2)Oc2ncc(-c3ccccc3F)cc2C1=O | 14 | 5 | / | / | / | 51[16.7 µM]
38 | CC(C)(C)C1CCc2c(C(=O)N/N=C/c3cccs3)csc2C1 (stereo unspecified) | 3 | -4 | 124* | 19 | -125 | 4
39 | N#Cc1ccc(C#Cc2ccc3oc4ccccc4c(=O)c3c2)cc1 | -16 | -10 | 3 | 0 | -1 | -1
40 | CNC(C)C#Cc1ccc2c(=O)c3ccccc3oc2c1 (stereo unspecified) | -19 | / | 71 | 38* | -70 | /
41 | Nc1ccc(C#Cc2ccc3c(=O)c4ccccc4oc3c2)cc1 | -10 | -3 | 111* | 25 | -107 | 5
42 | Cn1cncc1C#Cc1ccc2c(=O)c3ccccc3oc2c1 | -22 | / | 68 | 44* | -67 | /
43 | C/C(=N\NC(=O)CN1CCCCC1)c1cccc([N+](=O)[O-])c1 | / | / | 38 | 4 | -32 | /
44 | C/C(=N\NC(=O)CN1CCCCC1)c1ccccc1O | -17 | 44* | -3 | 2 | 1 | 10
45 | CN(/N=C/c1ccncc1)C1=NCCN1 | -18 | -6 | 1 | 4 | 1 | /

# Whole records from above.
# Listed for O=C(NC1CCCCC1)N[C@@H]1CC[C@H](CC(=O)N2CCOCC2)O[C@H]1CO : UUG fidelity: -8; PGC1a acetyl inh: -3; MITF act: /; Wnt act: /; TRPM1 prom inh: /; miR122 inh: /
# Listed for C/C(=N\NC(=O)CN1CCCCC1)c1cccc([N+](=O)[O-])c1 : UUG fidelity: /; PGC1a acetyl inh: /; MITF act: 38; Wnt act: 4; TRPM1 prom inh: -32; miR122 inh: /
# Listed for CNC(C)C#Cc1ccc2c(=O)c3ccccc3oc2c1 (stereo unspecified) : UUG fidelity: -19; PGC1a acetyl inh: /; MITF act: 71; Wnt act: 38*; TRPM1 prom inh: -70; miR122 inh: /

# (continued)
no. | compound | UUG fidelity | PGC1a acetyl inh | MITF act | Wnt act | TRPM1 prom inh | miR122 inh
46 | CN(/N=C/c1ccncc1)c1cnc2ccccc2n1 | / | 0 | 35 | 37* | -28 | /
47 | Cc1ccc(-c2nnc(N(C)C(=O)c3cccnc3)s2)cc1 | / | 4 | 29 | 27 | -26 | -1
48 | COc1ccc(-c2nnc(N(C)C(=O)c3cccnc3)s2)cc1 | -15 | -1 | 36 | 41* | -41 | -7
49 | CN(c1cc2c(c3c1ccn3C)C1CCC2C1)C1CCCCC1 (stereo unspecified) | -3 | 78* | / | 1 | / | 20
50 | CCN(C)c1cc2c(c3c1ccn3C)C1CCC2C1 (stereo unspecified) | 1 | -1 | / | -2 | / | 8
51 | COCC#Cc1cnc2c(c1)C(=O)N([C@H](C)CO)C[C@@H](C)[C@H](CN(C)C(=O)c1cccnc1)O2 | -9 | -2 | / | / | / | 4[16.7 µM]
52 | Cc1ccc(S/C=C\C(=O)c2ccccc2)cc1 | / | -31 | -4 | 56* | -3 | /
